Measurements published in paper PMC11966747, “Next Generation Risk Assessment of Acute Neurotoxicity from Organophosphate Exposures Using the In Vitro–In Silico Derived Dietary Comparator Ratio” (Environmental Science & Technology, 2025).
Where two headings read alike, the source gives them in different places.

Protein sequences, listed by entry. Tags and fused reporters are not part of them. Residues count along the entry.
UniProt P22303, 32-617 isoform P22303-2 limits assumed: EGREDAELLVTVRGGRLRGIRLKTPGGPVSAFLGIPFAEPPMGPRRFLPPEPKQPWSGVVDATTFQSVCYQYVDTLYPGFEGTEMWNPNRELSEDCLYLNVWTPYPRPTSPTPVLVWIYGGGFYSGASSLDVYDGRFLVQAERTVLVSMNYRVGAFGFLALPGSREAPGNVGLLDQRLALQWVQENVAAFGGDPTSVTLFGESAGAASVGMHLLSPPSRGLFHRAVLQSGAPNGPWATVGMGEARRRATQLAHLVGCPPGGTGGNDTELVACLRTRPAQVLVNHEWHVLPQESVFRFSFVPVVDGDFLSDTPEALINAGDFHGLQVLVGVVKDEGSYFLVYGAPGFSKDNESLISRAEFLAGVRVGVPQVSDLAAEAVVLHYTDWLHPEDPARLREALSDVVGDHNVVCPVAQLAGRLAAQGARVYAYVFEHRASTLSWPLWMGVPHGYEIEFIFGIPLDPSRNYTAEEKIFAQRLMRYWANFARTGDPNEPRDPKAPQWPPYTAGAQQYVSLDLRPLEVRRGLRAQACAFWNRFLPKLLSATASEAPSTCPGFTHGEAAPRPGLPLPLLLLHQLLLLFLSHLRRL

What was measured:
erythrocyte AChE [1] = target: T1, erythrocyte AChE (Homo sapiens, UniProt P22303); assay: Exposure Activity Ratio (EAR) and Dietary Comparator Ratio (DCR) calculation; design: from tissue; host or cells: human whole peripheral blood (erythrocytes), K2EDTA anticoagulant
Method: The DCR value for an exposure scenario was calculated as the ratio of EARtest and EARcomparator (eq 1). The EARtest is scenario-specific and was defined with the IC50 of the tested organophosphate oxon for in vitro erythrocyte AChE inhibition and the PBK model-simulated CBmaxoxon at the defined exposure level (eq 2).
The DCR-based predictions were evaluated by comparing the obtained DCR results with actual knowledge of the adverse health effects reported for the respective exposure scenarios. Adverse effects cannot be ruled out for human exposure scenarios with a DCR result greater than 1, while exposure scenarios with a DCR result less than or equal to 1 are considered to raise no safety concern.[18]−[20] Once validated as an adequate predicting tool, the DCR approach was applied for evaluating the safety of exposure scenarios, for which no information on the resulting toxic outcomes was reported at the defined dose levels for humans.

erythrocyte AChE [2] = target: T1, erythrocyte AChE; details: cited from earlier work
[3] = single oral 286 mg/kg BW, ref Table S2, 286 mg/kg

SMILES: CCOP(=S)(OCC)Oc1nc(Cl)c(Cl)cc1Cl [chlorpyrifos]
- calculated DCR value (erythrocyte AChE [1]; single oral 286 mg/kg BW): 40
- calculated EARtest value (erythrocyte AChE [1]; single oral 286 mg/kg BW): 1.57
- reported or expected adverse health outcome (erythrocyte AChE [2]; [3]): positive
- reported or expected adverse health outcome (erythrocyte AChE [2]; single oral 286 mg/kg BW, ref Table S2, listed as Chlorpyrifos, 286 mg/kg): Yes

SMILES: COP(=S)(OC)Oc1ccc([N+](=O)[O-])c(C)c1 [fenitrothion]
- calculated DCR value (erythrocyte AChE [1]; single oral 286 mg/kg BW): 1005
- calculated EARtest value (erythrocyte AChE [1]; single oral 286 mg/kg BW): 39.69
- calculated DCR value (erythrocyte AChE [1]; single oral 714 mg/kg BW): 1949
- calculated EARtest value (erythrocyte AChE [1]; single oral 714 mg/kg BW): 76.95
- reported or expected adverse health outcome (erythrocyte AChE [2]; [3]): positive
- reported or expected adverse health outcome (erythrocyte AChE [2]; single oral 286 mg/kg BW, ref Table S2, listed as Fenitrothion, 286 mg/kg): Yes
- reported or expected adverse health outcome (erythrocyte AChE [2]; single oral 714 mg/kg BW, ref Table S2, 714 mg/kg): positive
- reported or expected adverse health outcome (erythrocyte AChE [2]; single oral 714 mg/kg BW, ref Table S2, listed as Fenitrothion, 714 mg/kg): Yes
